Source: PubChem BioAssay AID588413 (Sanford-Burnham Center for Chemical Genomics, 2011)
The list shows a part of the results, in another mix than the full data. Calls of active or inactive are those of the source.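 Rule for the calls: active = inhibition above about 55% (limit read from the data); inactive = the rest.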

assay: blockers of Gli reporter signaling – luciferase luminescence, Sufu-KO-LIGHT cells, uHTS, primary screen (AID 588413); conditions: Sufu-KO-LIGHT fibroblasts, at 5 µM, hits give high values;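 note: 0% = DMSO-treated cells and 100% = wells with medium but no cells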

| Structure (SMILES) | inhibition |
| --- | --- |
| CC(=O)c1ccc(N2CC2c2ccncc2)cc1 (stereo not given) | inactive: -25.4% |
| C[C@@H]1C=CCP(=O)(Oc2ccccc2)O1 (stereo not given in full) | inactive: -5.73% |
| C[C@H]1OP(=O)(Oc2ccccc2)C[C@@H]2O[C@@H]21 (stereo not given in full) | inactive: -5.99% |
| Cc1ccccc1CN(C)C(=O)COC(=O)C(O)(c1ccccc1)c1ccccc1 | inactive: -5.22% |
| CC(=O)Nc1ccc(Oc2c([N+](=O)[O-])cc([N+](=O)[O-])cc2[N+](=O)[O-])cc1 | inactive: -5.09% |
| CC(=O)Nc1ccc([As](=O)(O)O)c(O)c1 | inactive: -0.49% |
| CCOc1ccc(C2=NCC(CBr)S2)cc1 (stereo not given) | inactive: -8.45% |
| O=P1(Nc2nc3ccc(Cl)cc3s2)COc2ccccc2O1 (stereo not given) | inactive: 16.9% |
| CCc1cc(O)c([N+](=O)[O-])c(C)c1[N+](=O)[O-] | inactive: 1.21% |
| CC(C)(C)C(=O)NC(Sc1ccccc1)C(Cl)(Cl)Cl (stereo not given) | inactive: -27.3% |
| CC(C)CC(=O)NC(Sc1ccc(Cl)cc1)C(Cl)(Cl)Cl (stereo not given) | inactive: -0.43% |
| Nc1cc(N)c2nonc2c1[N+](=O)[O-] | inactive: -8% |
| O=C(NC(Sc1ccncn1)C(Cl)(Cl)Cl)c1ccccc1 (stereo not given) | inactive: 5.02% |
| Oc1ccccc1CNc1ccccn1 | inactive: -4.93% |
| NC(=O)c1cc([N+](=O)[O-])cc([N+](=O)[O-])c1N | inactive: 0.63% |
| Cc1ccc(N/C(=N/P(=O)(N2CCOCC2)N2CCOCC2)N2CCOCC2)cc1 | inactive: -4.99% |
| CN(C(=O)Cc1ccc(Cl)c(Cl)c1)[C@H]1CCCC[C@H]1N1CCCC1 | inactive: 10.2% |
| Cc1ccc(OP(=O)(Nc2nccs2)Oc2ccc(C)cc2)cc1 | inactive: -0.32% |
| COc1ccccc1OP(=O)(Nc1ccc(C)cn1)Oc1ccccc1OC | inactive: 0.99% |
| Clc1ccc(Cl)c(NC2=NCC(CBr)S2)c1 (stereo not given) | inactive: 2.97% |
| CN1CCCC(OC(=O)C(c2ccccc2)c2ccccc2)C1 (stereo not given) | active: 59.3% |
| CCN(N=Nc1nonc1N)c1nonc1N | inactive: -0.9% |
| Nc1cccc2ccc([As](=O)(O)O)cc12 | inactive: 1.07% |
| CCCC1OP(N)(=O)OCC1CC (stereo not given) | inactive: -3.57% |
| O=C(O)c1ccccc1[As](=O)(O)O | inactive: 42.8% |

| Structure (SMILES) | inhibition |
| --- | --- |
| CC(=O)Nc1ccc([As](=O)(O)O)cc1 | inactive: 14.4% |
| O=P(Nc1nc2ccc(Cl)cc2s1)(c1ccccc1)c1ccccc1 | inactive: -4.7% |
| Cc1ccc(NP(=O)(Oc2ccccc2F)Oc2ccccc2F)nc1 | inactive: 2.67% |
| CN(C(=O)Cc1ccc(Cl)c(Cl)c1)[C@H]1CCCC[C@@H]1N1CCCC1 | inactive: 5.45% |
| CCOP(=O)(Nc1ccccc1)OCC | inactive: -11.7% |
| Cc1cc(SC(NC(=O)c2ccc(F)cc2)C(Cl)(Cl)Cl)ncn1 (stereo not given) | inactive: 0.09% |
| CC(C)(C)C(=O)NC(Sc1ccncn1)C(Cl)(Cl)Cl (stereo not given) | inactive: 4.81% |
| O=[N+]([O-])c1ncn(CCn2ncnc2[N+](=O)[O-])n1 | inactive: -0.81% |
| O=[N+]([O-])c1cccc(NC2=NCC(CBr)S2)c1 (stereo not given) | inactive: 6.64% |
| COC(=O)C1(C)COP(=O)(Nc2ccccc2)OC1 (stereo not given) | inactive: -0.55% |
| O=C(O)CNc1ccc([As](=O)(O)O)cc1 | inactive: -6.4% |
| O=P1(N(CCCl)CCCl)OCCCS1 (stereo not given) | inactive: 3.69% |
| O=C(Nc1cc([As](=O)(O)O)ccc1O)c1ccccc1 | inactive: 13% |
| C[N+]1=C2C=CC=CC=C2SC12C([N+](=O)[O-])=CC([N+](=O)[O-])=C[C-]2[N+](=O)[O-] (stereo not given) | inactive: 5.83% |
| Nc1ccc([As](=O)(O)c2ccc(N)cc2)cc1 | inactive: 5.92% |
| CCN(/C(=N/P(=O)(N1CCOCC1)N1CCOCC1)N1CCOCC1)c1ccc(OC)cc1 | inactive: -9.77% |
| CN(C)C(=O)OCCc1n(C)cc[n+]1C | inactive: 3.84% |
| CC(C)=N/N=C(\N)N[N+](=O)[O-] | inactive: -3.38% |
| CC1CCN(C(=O)Oc2c(Cl)cc(Cl)c3cccnc23)CC1 | inactive: 4.7% |
| COc1ccc(C2=NCC(CBr)S2)cc1 (stereo not given) | inactive: -9.67% |
| O=[N+]([O-])c1cccc2n[nH]nc12 | inactive: -2.98% |
| CC(=O)N1C2C3N(C(C)=O)C1C1N(C(C)=O)C(C(N1C(C)=O)N3C(C)=O)N2C(C)=O | inactive: 4.76% |
| CCc1nc2c(n1)c1c(non1O)c1c2no[n+]1[O-] | inactive: -1.74% |
| O=[N+]([O-])c1cc([N+](=O)[O-])c(CCNc2ccccc2)c([N+](=O)[O-])c1 | inactive: -8.36% |
| Cc1ccc(NP(=O)(Oc2ccccc2)Oc2ccccc2)nc1 | inactive: -14.1% |
